Experimental data published in patent US8409550B2, “Method for treating skin with retinoids and retinoid boosters” (Unilever Home & Personal Care, USA, Division of Conopco, …, priority 2000, dated 2013).

Tested on: transglutaminase (TGase I)
Assay: Transglutaminase (Tgase) ELISA assay in cultured keratinocytes with retinol and boosters
Assay type: cell-based, human
Conditions: 1 μM retinoid, day 2, keratinocytes 4000 cells/well

## CC1=C(/C=C/C(C)=C/C=C/C(C)=C/C(=O)O)C(C)(C)CCC1 [retinoic acid, all-trans-retinoic acid, reference compound]
  inhibition of transglutaminase production (maximal): 85%
